chloro-thioxanthone returned a UV absorption wavelength (350-400 nm band region) of 385 nm. The “E1^1 (extinction coefficient of absorption)” value (at the stated absorption wavelength) stood at 159.

The values are drawn from US10040893B2, “Polymeric photoinitiators and photoinitiator monomers” (Coloplast A/S, priority 2012, dated 2018).
